# Assay outcomes from PubChem.
# This is a sample that favours compounds with a hit; in the whole collection about 13% have one here.
# ALDH1A1 block – inhibitors of human aldehyde dehydrogenase 1A1; Purified ALDH1A1, NADH fluorescence, propionaldehyde substrate; Potency, µM (doses to about 75.3 µM), without a hit: at the top dose activity, negative = inhibition, hits mostly inhibitors; hit rate 7.3% among 220,000; active means well fitted inhibition curve with a large enough effect, not every such curve was filed as active; inconclusive means small, poorly fitted or top-dose-only effect, or another doubt; inactive means no such curve, though single readings can be large or run the other way;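 further: potency means the concentration at half of the fitted maximal effect; plate controls were no enzyme wells and a reference inhibitor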
# Sfp inh – qHTS Assay for Inhibitors of Bacillus subtilis Sfp phosphopantetheinyl transferase (PPTase); Biochemical Sfp PPTase activity, qHTS; Potency, µM, for inactives: max response, negative = inhibition, actives largely listed as inhibitors; actives 3.5% (n = 310,000); AID 1490, 2009; active = well fitted inhibition curve with a large enough effect; inconclusive = small, poorly fitted or top-dose-only effect, or another doubt; inactive = no such curve, though single readings can be large or run the other way;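 note: the enzyme is Sfp with the accession as filed and its product quenches rhodamine fluorescence; potency is the fitted concentration of half-maximal effect; 0% = enzyme reaction without inhibitor and -100% = no enzyme wells; top concentration of the series not given in the record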
#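 Fluorescence-quenching assay with 15 nM Sfp, 5 uM rhodamine-CoA and 12.5 uM BHQ-2-labelled ybbR peptide in pH 7.6 Hepes/MgCl2 buffer. Enzyme was pre-incubated with compound for 15 min at room temperature. Rate was taken from the 30-min fluorescence change (525/598 nm).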
# miR-21 reporter – raises the signal of a miR-21 reporter | Potency, µM (doses to about 38.3 µM), for inactives: top-dose reporter change, positive = more light | HeLa miR-21 FLuc reporter, luciferase, 48 h | AID 2288 | 340,000 tested, under 10 active; active = well fitted rising curve with a large enough effect; inconclusive = small, poorly fitted or top-dose-only effect; inactive = no such curve, though single readings can be large or run the other way;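 also: % of control where 0% means no effect; miR-21 action dims this reporter so a rising signal means less miR-21 action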
#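 HeLa cells endogenously expressing miR-21, stably carrying CMV-driven firefly luciferase with a downstream miR-21 binding site, 2000 cells/well. Titrations up to approximately 40 uM, 48 hours; luciferase luminescence read.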
# JMJD2E inh – JMJD2E (human) inhibition | JMJD2E catalytic domain, FDH-coupled NADH fluorescence (FDH is formaldehyde dehydrogenase) | Potency, µM (highest dose often 57.1 µM), inactives show at the top dose activity change, negative = inhibition, most hits filed as inhibitors | hit rate 1.6% among 230,000 | B2RXH2 | AID 2147; active means well fitted inhibition curve with a large enough effect, not every such curve was filed as active; inconclusive means small, poorly fitted or top-dose-only effect, or another doubt; inactive means no such curve, though single readings can be large or run the other way;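 further: potency means the concentration at half of the fitted maximal effect; 0% = wells with enzyme and -100% = buffer wells without enzyme; nearly all actives have a fitted effect of over 50% in size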
# G9a inh – inhibitors of human histone lysine methyltransferase G9a; Q96KQ7; G9a H3K9 monomethylation, AlphaScreen, 2 h; Potency, µM (series often up to 102 µM), inactives show top-dose activity, negative = inhibition, hits mostly inhibitors; hit rate 8.8% among 350,000; AID 504332; further: potency means the concentration at half of the fitted maximal effect; on the % scale 0 is the no-effect control and ±100 the full control effect; nearly all actives have a fitted effect of over 75% in size
#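 G9a (20 nM) preincubated 15 min RT with compounds, then 500 nM biotinylated H3K9 peptide and 20 uM SAM added; 2 h RT reaction. Monomethyl-H3K9 product detected by AlphaScreen with anti-H3K9me1 antibody, streptavidin donor and anti-rabbit IgG acceptor beads.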
# Lamin A splicing – LMNA splicing modulation; Potency, µM (doses to about 46.1 µM), inactives show at the top dose ratio change, negative = inhibition, actives largely listed as inhibitors; hit rate 0.01% among 200,000; AID 1487; HeLa LMNA splicing GFP/RFP minigene ratio, 48 h; active means well fitted inhibition curve with a large enough effect in the signal ratio, with a control signal flat, not every such curve was filed as active; inconclusive means small, poorly fitted or top-dose-only effect, or effect the other way, or a change in a side signal; the % refers to the signal ratio; further: potency means the concentration at half of the fitted maximal effect; on the % scale 0 is the no-effect control and ±100 the full control effect
#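 Read-out is the ratio of GFP to DsRed2 object intensity, acquired by 488 nm laser-scanning cytometry on HeLa lamin A-EGFP minigene reporter cells. Compound incubation 48 hrs at 37 °C in Opti-MEM with 2% FBS; DMSO 0.5% final.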
# The depositor's hits bear a star; ? = inconclusive; . = no result; [ ] = another dose, or the depositor's remark. Unless noted, the call rests on the fitted dose curve; in most records, active means well fitted curve in the direction sought with a large enough effect; inconclusive means small, poorly fitted or top-dose-only effect, or another doubt; inactive means no such curve, though single readings can be large; an effect the other way counts as inactive or inconclusive.
item	ALDH1A1 block	Sfp inh	miR-21 reporter	JMJD2E inh	G9a inh	Lamin A splicing	Compound
1	.	.	22.9%	.	?	.	CC1CCN(S(=O)(=O)c2ccc3nc(NCc4ccc(F)cc4)ccc3c2)CC1
2	.	6.0%	-7.7%	.	17.8µM*	.	CC(=O)c1ccc(N2CCN(c3ccc4cc(S(=O)(=O)N5CCC(C)CC5)ccc4n3)CC2)cc1
3	.	.	29.3%	.	10µM*	.	CC1CCN(S(=O)(=O)c2ccc3nc(NCc4ccc(N(C)C)cc4)ccc3c2)CC1
4	.	.	0.1%	.	8.3%[59 µM]	.	Cc1sc2c(c1C)c(=O)n(CCc1ccccc1)c(=O)n2Cc1ccc(C(C)(C)C)cc1
5	.	21.0%	-13.9%	.	57.9%	.	CC(NC(=O)COC(=O)C1CCN(c2ccc(C(F)(F)F)cn2)CC1)c1ccc(Br)cc1 (stereo not drawn)
6	.	.	-5.4%	.	15.8µM*	.	CCOC(=O)c1ccc(-n2c(CCC(=O)O)ccc2-c2ccc(Br)cc2)cc1
7	.	?	-0.6%	.	-33.1%[2.33 µM]	.	COC(=O)c1ccc(-n2c(CCC(=O)O)ccc2-c2ccccc2)cc1
8	-13.7%	-0.7%	1.3%	?	?	-4.0%	Cc1ccc(-c2ccc(CCC(=O)O)n2-c2ccc(O)cc2)cc1
9	.	.	-4.0%	.	10µM*	.	CCOc1ccc(-n2c(CCC(=O)O)ccc2-c2ccc(Br)cc2)cc1
10	-3.4%	18.0%	-3.8%	-9.3%	9.2%	.	CN(C)/C=C(\C#N)C(N)=C(C#N)C#N
11	.	-5.9%	-3.5%	2.3%	.	.	Cc1cc(C)cc(OCC(=O)O/N=C(\N)c2cccnc2)c1
12	.	-0.1%	-2.1%	.	8.0%	.	CCOC(=O)c1cnc2ccc(C)cc2c1NCCN1CCOCC1
13	14.1µM*	0.5%	-0.4%	0.7%	5.2%[12.7 µM]	-4.6%	CCOC(=O)c1cnc2ccc(C)cc2c1OCc1cc(F)cc(F)c1
14	-4.2%	15.0%	-1.6%	4.5%	-6.5%	?	NNC(=O)CSCc1nc(-c2ccccc2)cs1
15	6.8%	10.1%	-33.5%	-6.2%	232.6%	.	CC(C)(C)C(=O)OCc1nc(-c2ccc(Cl)cc2)cs1

# Profiles, looked up by structure. Values in the order: ALDH1A1 block, Sfp inh, miR-21 reporter, JMJD2E inh, G9a inh, Lamin A splicing
# COC(=O)c1ccc(-n2c(CCC(=O)O)ccc2-c2ccccc2)cc1 across the screens: ., ?, -0.6%, ., -33.1%[2.33 µM], .
# Cc1sc2c(c1C)c(=O)n(CCc1ccccc1)c(=O)n2Cc1ccc(C(C)(C)C)cc1 across the screens: ., ., 0.1%, ., 8.3%[59 µM], .

# An excerpt of these results, field by field:
6: CCOC(=O)c1ccc(-n2c(CCC(=O)O)ccc2-c2ccc(Br)cc2)cc1
  ALDH1A1 block: .; Sfp inh: .; miR-21 reporter: -5.4%; JMJD2E inh: .; G9a inh: 15.8µM*; Lamin A splicing: .
7: COC(=O)c1ccc(-n2c(CCC(=O)O)ccc2-c2ccccc2)cc1
  ALDH1A1 block: .; Sfp inh: ?; miR-21 reporter: -0.6%; JMJD2E inh: .; G9a inh: -33.1%[2.33 µM]; Lamin A splicing: .
8: Cc1ccc(-c2ccc(CCC(=O)O)n2-c2ccc(O)cc2)cc1
  ALDH1A1 block: -13.7%; Sfp inh: -0.7%; miR-21 reporter: 1.3%; JMJD2E inh: ?; G9a inh: ?; Lamin A splicing: -4.0%

# (next part)
item	ALDH1A1 block	Sfp inh	miR-21 reporter	JMJD2E inh	G9a inh	Lamin A splicing	Compound
16	2µM*	?	2.9%	-19.3%	-37.1%	.	NC(=S)Cc1nc(-c2ccc(Cl)cc2)cs1
17	?	-10.0%	-16.3%	3.0%	24.5%	.	NC(=O)Cc1nc(-c2ccc([N+](=O)[O-])cc2)cs1
18	0.708µM*	11.9%	0.1%	21.3%	.	?	NNC(=O)CSCc1nc(-c2ccc(Cl)cc2)cs1
19	.	6.4%	-1.4%	3.2%	22.4µM*	.	NC(=O)Cc1nc(-c2ccc(F)cc2)cs1
20	3.16µM*	-5.8%	-4.5%	-6.3%	?	-10.3%	CCn1cc(C(=O)NCc2ccccc2OC)c(=O)c2cc(S(=O)(=O)N(C)C)ccc21
21	.	.	12.8%	.	-40.2%[59 µM]	.	CCn1cc(C(=O)NCc2ccccc2OC)c(=O)c2cc(S(=O)(=O)N3CCCCCC3)ccc21
22	?	-9.8%	-4.0%	-20.4%	35.5µM*	10.7%	CCN(CCCNC(=O)c1cn(CC)c2ccc(S(=O)(=O)N(C)C)cc2c1=O)c1cccc(C)c1
23	.	11.9%	0.6%	.	-5.1%	.	CCn1cc(C(=O)NCCc2ccc(C)cc2)c(=O)c2cc(S(=O)(=O)N(C)C)ccc21
24	.	.	-1.2%	.	-2.7%[59 µM]	-12.9%[46 µM]	Cn1ccc2cc(S(=O)(=O)N3CCN(C(=O)Nc4cccc(F)c4)CC3)ccc21
25	.	15.7%	-4.4%	.	8.9%	.	Cc1ccc(NC(=O)C2(S(=O)(=O)c3ccc(Cl)cc3)CC2)cc1
26	-7.3%	?	-6.6%	-4.6%	2.51µM*	-15.7%	CC(C)NCc1cccc([N+](=O)[O-])c1
27	-2.6%[13.5 µM]	.	.	.	.	.	Cc1ccc(S(=O)(=O)NCc2cccc([N+](=O)[O-])c2)cc1
28	.	.	-49.4%	.	9.6%[59 µM]	.	Cc1ccc(Nc2c(-c3ccc(C)s3)nc3ncccn23)cc1
29	28.2µM*	5.2%	.	2.4%	.	.	CCC1=C(OC(=O)N(CC)CC)N2C(=O)OC(=NCCOC)[C@]2(C)[C@H]2C1=CC[C@H]1C(=O)N(CC(=O)OC)C(=O)[C@H]12
30	12.6µM*	-18.5%	-30.7%	20µM*	56.2µM*	?	O=c1oc2ccccc2nc1/C=C(O)/C=C\c1ccccc1
31	.	?	-7.3%	-29.9%	28.2µM*	.	Cc1ccc(/C(O)=C/c2nc3ccccc3oc2=O)cc1
